The source of these data is PMC11737796 (PLOS ONE, 2025).

This test has as its target T1, recombinant murine RORγt LBD (Mus musculus, UniProt P51450).
T1 construct: 10nM purified HN-AVI-GST-TCS-mRORγ(aa256-516) was mixed with
T1 sequence (P51450 256-516): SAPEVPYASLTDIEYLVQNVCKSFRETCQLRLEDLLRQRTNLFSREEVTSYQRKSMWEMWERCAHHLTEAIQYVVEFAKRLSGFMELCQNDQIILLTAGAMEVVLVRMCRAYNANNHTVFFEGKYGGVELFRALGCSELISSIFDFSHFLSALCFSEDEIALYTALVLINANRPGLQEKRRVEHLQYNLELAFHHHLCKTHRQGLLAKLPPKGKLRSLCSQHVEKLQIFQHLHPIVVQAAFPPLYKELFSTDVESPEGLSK
In words: Murine RORγt radioligand competition binding assay. The conditions noted are these: raw points of replicate experiments. The procedure:
The assay was run in white/clear polystyrene flat-bottom 384-well plates (Greiner, cat. No. 781095). Assays were carried out in 40 μl reaction volumes. 0.125 μl of a fixed concentration range of test ligands dissolved in DMSO were added to assay plates using an acoustic liquid dispenser.
The raw data from the radio-ligand and co-factor recruitment assays were transformed to % effect using the equation:
Compound % effect = 100*[(X-min)/(max-min)]
where X represents the effect in the presence of test compound and max and min are the effects in presence of the maximum and minimum controls respectively.
The data was plotted to generate concentration response profiles and the concentration-response curves were fitted to the data using the non-linear regression analysis; 4 parameter logistic smart fit method in the Analyser application of the Genedata® Screener software (Genedata, Inc., Basel, Switzerland). […] Ki was calculated from the IC50 value using the equation Ki = IC50/1+[L]/Kd)
For orientation: In a radioligand displacement assay an active substance lowers the binding of a labelled ligand.

On to `CC(=O)N1Cc2cc(S(C)(=O)=O)ccc2[C@@H]1C(=O)Nc1ccc(C(O)(C(F)(F)F)C(F)(F)F)cc1` [Compound 5], for which the “Mouse ligand binding Response (%)” value was -101.256% (-LOG10(Concentration) 5) and -10.569% (-LOG10(Concentration) 8.5).
